Test results as given in patent publication US9988406B2, “Forms of R)-3-(4-(2-(2-methyltetrazol-5-yl)pyridin-5-yl)-3-fluorophenyl)-5-hydroxymethyl oxazolidin-2-one dihydrogen phosphate” (Merck Sharp & Dohme Corp., priority 2009, dated 2018).

Conditions: crystals after filtering and drying; pH=3.2 of the saturated solution

Substance: (R)-3-(4-(2-(2-methyltetrazol-5-yl)pyridin-5-yl)-3-fluorophenyl)-5-hydroxymethyl oxazolidin-2-one dihydrogen phosphate [free acid]
- aqueous solubility: 0.1 mg/mL
